The values that follow come from article PMC7870626, “Neurotoxicity and underlying cellular changes of 21 mitochondrial respiratory chain inhibitors” (Archives of Toxicology, 2021).

One assay has as its system SH-SY5Y cells. Briefly: Mitochondrial membrane potential (rhodamine 123), KE2 assay. In kind it is cell-based, human. The note with it: NeuriTox neurite EC25 relative to SH-SY5Y MMP EC25. On the procedure:
Cells were plated at a cell density of 29,500 cells/cm^2 and handled as described above for the neurite SH-SY5Y degeneration. On d6 of differentiation, 50% of the medium was replaced by differentiation medium containing 2 µM Rhodamine 123 (ThermoFisher). After 45 min of preloading at 37 °C with 5% CO2 in darkness, the Rhodamine 123 solution was completely removed and cells were carefully washed once with 200 µl DMEM:F12. Subsequently, 50 µl differentiation medium per well were added followed by the addition of 50 µl/well of test compounds in medium. […] Nuclei were evaluated in the DAPI channel (excitation 377 ± 50 nm, emission 447 ± 60 nm), whereas Rhodamine 123 fluorescence was detected in the FITC channel (excitation 475 ± 34 nm, emission 536 ± 40 nm). Analysis of the Hoechst 33,342 and Rhodamine 123 fluorescence was performed using the MetaXpress® Software (Molecular Devices) with the Transfluor HT plug-in and the parameters nuclei (for Hoechst-33342) and integrated granule intensity (for Rhodamine 123). Mitochondrial membrane potential (MMP) was quantified as the total fluorescence intensity of Rhodamine 123 in relation to the number of Hoechst-stained nuclei.

The subject of a further assay is LUHMES cells. In kind it is cell-based, human. On the procedure: Cells were cultured and treated as described above for the NeuriTox assay. On d3, after 24 h treatment, culture medium was replaced by 33 µl/well 1 × Biospyder lysis buffer. After 15 min at room temperature, plates were sealed and frozen at -80 °C to complete lysis. Samples were analyzed at Bioclavis (Glasgow) using the TempO-Seq technique and the EU-ToxRisk v2.0 gene probe panel covering ca. 3000 genes (Yeakley et al. [2017]). All genes are listed in the supplementary excel file (containing also all gene regulations). Briefly, a 50 bp fragment of the target gene was amplified. The amplification step also introduced sample-specific barcodes. This allowed pooling of all samples and standard next-generation sequencing of the ensemble. Afterward, adapters were used to allocate the sequenced fragments to the correct samples. Finally, the alignment of all sequenced fragments (FASTQ files) for each sample to the collection of reference 50 bp oligonucleotides was performed for the quantification of reads per gene, also known as the read count values. In a pre-filtering step, samples with a total count < 0.2 million and genes with an average count < 1.5 were removed. The effect of normalization was checked by boxplots and distribution plots (not shown), and no outlier samples were identified.
To correct for both read depth and RNA composition, the DESeq2′s median of ratios normalization was applied. The analysis of differentially expressed genes (DEG) of each treatment against the control group was done by the Wald test implemented in DESeq2/R (Love et al. [2014]), including an FDR correction for p-adjusted ≤ 0.05. […] A curve was fit through these concentration–response data to obtain EC10DEG. For comparability, all DEG data were normalized to a positive control. […] The EC10DEG was calculated using an established online open access BMC calculator (BMCeasy) (Krebs et al. [2020]).

The test system of the next assay is proteasome. The assay is described as follows: Proteasomal activity (KE3 assay) in LUHMES cells. In kind it is cell-based, human. Particulars: NeuriTox neurite EC25 relative to proteasomal activity EC25, LUHMES. The method, then:
Activity of the proteasome was quantified as described in (Gutbier et al. [2018b]). Briefly, after exposure, culture medium was replaced by assay buffer containing a cell-permeable proteasomal substrate (MeOSuc-Gly-Leu-Phe-AMC, 25 µM (Bachem, Bubendorf, Switzerland) in HBSS). Its AMC-fluorescence (ex: 360 nm, em: 465 nm) increases with proteasomal activity and was monitored for 90 min. Background-corrected data were used for further analysis.

The test system of a further assay is HepG2 cells. Briefly: HepG2-based respirometry, total cell respiration (earlier study). Particulars: NeuriTox neurite EC25 relative to cell respiration EC25; respirometric data from HepG2-based assays ref van der Stel et al. 2020.
Assay [1] has as its system MRC complex (cI, cII or cIII). The assay is described as follows: HepG2-based MRC complex assay in permeabilized cells (earlier study). The note with it: NeuriTox neurite EC25 relative to complex assay EC25 in permeabilized cells; respirometric data from HepG2-based assays ref van der Stel et al. 2020. In kind it is cell-based.

For the compound `Cc1nn(C)c(Oc2ccccc2)c1C=NOCc1ccc(C(=O)OC(C)(C)C)cc1` [Fenpyroximate], the “Ratios of EC25 KE4/KE2 MMP” value in the assay on SH-SY5Y cells stood at 20. Moreover, in the assay on LUHMES cells, the “log2FoldChange AARS” value came out at 0.27 log2, the “log2FoldChange AASDHPPT” value worked out at 0.38 log2, the “log2FoldChange AATF” value is 0.12 log2 and the “log2FoldChange ABCA1” value is -1.83 log2. The “log2FoldChange ABCA6” value in the assay on LUHMES cells is listed as -1.18 log2. Further, the “Ratios of EC25 KE4/KE3 proteasomal” value with proteasome came out at 0.6. In addition, the “Ratios of EC25 KE4/KE1 total respiration” value in the assay with HepG2 cells is given as 100. Further, the “Ratios of EC25 KE4/KE1 complex assay” value in assay [1] was determined as 10000.
